Patent US20200338203A1 (Bicycle, published 2020)

Amino acid sequences for entries named in this document (tags omitted). Residues count along the entry.
UniProt P29317, 24-537: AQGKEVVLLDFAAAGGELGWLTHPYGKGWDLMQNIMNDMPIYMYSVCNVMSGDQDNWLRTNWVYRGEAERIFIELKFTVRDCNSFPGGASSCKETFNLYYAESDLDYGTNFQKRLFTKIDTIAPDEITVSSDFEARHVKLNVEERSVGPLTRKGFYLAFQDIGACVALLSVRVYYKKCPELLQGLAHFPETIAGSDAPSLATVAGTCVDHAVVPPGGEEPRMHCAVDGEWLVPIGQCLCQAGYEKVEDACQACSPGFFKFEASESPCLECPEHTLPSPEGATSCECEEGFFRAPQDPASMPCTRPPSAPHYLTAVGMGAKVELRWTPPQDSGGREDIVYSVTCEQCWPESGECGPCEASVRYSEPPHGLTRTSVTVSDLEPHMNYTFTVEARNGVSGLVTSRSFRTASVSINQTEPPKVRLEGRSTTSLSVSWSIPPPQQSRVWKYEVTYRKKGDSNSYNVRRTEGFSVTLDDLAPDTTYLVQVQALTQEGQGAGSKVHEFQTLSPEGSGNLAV

B1: Compound 44 (peptide)
peptide: ACPWGPAWCPVNRPGCA
modifications: TBMB on the 3 Cys
B2: Compound 65 (peptide)
peptide: ACVPQGIWCALRYEPCA
modifications: TBMB on the 3 Cys
B3: Compound 61 (peptide)
peptide: ANDVTCPWGPFWCPVNRPGCA
modifications: TBMB on the 3 Cys
B4: Compound 56 (peptide)
peptide: ADHACPWGPFWCPVNRPGCA
modifications: TBMB on the 3 Cys
B5: Compound 28 (peptide)
peptide: ACMNDWLCQLGWKCA
modifications: TBMB on the 3 Cys
B6: Compound 29 (peptide)
peptide: ACMNDWLCELGWTCA
modifications: TBMB on the 3 Cys
B7: Compound 43 (peptide)
peptide: ACPWGPAWCPVNGARCA
modifications: TBMB on the 3 Cys
B8: Compound 51 (peptide)
peptide: ACPWGPAWCPVKPTCA
modifications: TBMB on the 3 Cys
B9: Compound 47 (peptide)
peptide: ACPWGPNWCPVNRPGCA
modifications: TBMB on the 3 Cys
B10: Compound 48 (peptide)
peptide: ACPWGPAWCPVRNPCA
modifications: TBMB on the 3 Cys
B11: Compound 35 (peptide)
peptide: ACRVSPEYCPFGPTWCA
modifications: TBMB on the 3 Cys
B12: Compound 40 (peptide)
peptide: ACRVSPEYCPFGPDWCA
modifications: TBMB on the 3 Cys
B13: Compound 39 (peptide)
peptide: ACRVSPEYCPFGPLWCA
modifications: TBMB on the 3 Cys
B14: Compound 50 (peptide)
peptide: ACPWGPAWCPVRSCA
modifications: TBMB on the 3 Cys
B15: Compound 49 (peptide)
peptide: ACPWGPAWCPVSRVCA
modifications: TBMB on the 3 Cys
B16: Compound 31 (peptide)
peptide: ACTQNDWLCSLGWTCA
modifications: TBMB on the 3 Cys

biological target: T1, Human EphA2 (Ecto) (Human, UniProt P29317 24-537); assay: FP competition; competitor Compound 1
T1 construct: extracellular domain
Experimental: (§1) Peptides without a fluorescent tag were tested in competition with a peptide with a fluorescent tag and a known Kd (Table 2). Peptides were diluted to an appropriate concentration in assay buffer as described in the direct binding assay with a maximum of 5% DMSO, then serially diluted 1 in 2. Five μL of diluted peptide was added to the plate followed by 10 μL of human or mouse EphA2 (Table 1) at a fixed concentration which was dependent on the fluorescent peptide used (Table 2), then 10 μL fluorescent peptide added. Measurements were conducted as for the direct binding assay, however the gain was determined prior to the first measurement.

Row | Ki | Binder
1 | 164 nM | B1

biological target: T1, Human EphA2 (Ecto); assay: FP competition; competitor Compound 12
Experimental: as §1

Row | Ki | Binder
2 | 229 nM | B2
3 | 128 nM | B1

biological target: T1, Human EphA2 (Ecto); assay: FP competition; competitor Compound 18
Experimental: as §1

Row | Ki | Binder
4 | 2.93 nM | B3
5 | 14.4 nM | B4

biological target: T1, Human EphA2 (Ecto); assay: FP competition; competitor Compound 66
Experimental: as §1

Row | Ki | Binder
6 | 293 nM | B2
7 | 113 nM | B5
8 | 134 nM | B6
9 | 430 nM | B7
10 | 318 nM | B8
11 | 78.3 nM | B9
12 | 284 nM | B10
13 | 191 nM | B1
14 | 43.2 nM | B11
15 | 55.4 nM | B12
16 | 32.1 nM | B13
17 | 7.3 nM | B3
18 | 314 nM | B14
19 | 428 nM | B15
20 | 5.87 nM | B4
21 | 152 nM | B16
